The values that follow come from patent US8324345B2, “HLA-binding peptide, precursor thereof, DNA fragment and recombinant vector encoding the same” (priority 2006, dated 2012).

The term Kd denotes the free concentration of one partner at which half of the binding sites on the other are occupied at equilibrium, for simple one-to-one binding. Lower therefore signals a tighter complex.

For the assay, the target named is HLA-A2 molecule (the product of HLA-A*0201 gene) (Homo sapiens, UniProt P04439, D140Y/D185E/D98H/E176V/E277Q/G131W/G231S/I119V/I121R/I166T/I218V/L300P/L318F/N151K/N90K/P208A/P217A/Q86G/Q94H/R138H/R169H/T345S). Briefly: Binding experiment of the peptides to an HLA-A0201 molecule (JY cells, flow cytometry). In general terms: A flow cytometer gives signals particle by particle.

The structures appear in SMILES notation.

For the compound `CC[C@H](C)[C@H](NC(=O)[C@H](CC(C)C)NC(=O)[C@@H](N)CCCNC(=N)N)C(=O)N[C@H](C(=O)N[C@H](C(=O)N[C@@H](CC(N)=O)C(=O)N1CCC[C@H]1C(=O)N[C@H](C(=O)N[C@H](C(=O)O)C(C)C)[C@@H](C)CC)C(C)C)[C@@H](C)O` [compound 31], the equilibrium dissociation constant (Kd) is 2290 nM.
